Protein sequences, listed by entry. Tags and fused reporters are not part of them. Lines headed by an entry give the natural chain unless they say otherwise; changes in a name come on top.
UniProt P35372, whole entry, looked up: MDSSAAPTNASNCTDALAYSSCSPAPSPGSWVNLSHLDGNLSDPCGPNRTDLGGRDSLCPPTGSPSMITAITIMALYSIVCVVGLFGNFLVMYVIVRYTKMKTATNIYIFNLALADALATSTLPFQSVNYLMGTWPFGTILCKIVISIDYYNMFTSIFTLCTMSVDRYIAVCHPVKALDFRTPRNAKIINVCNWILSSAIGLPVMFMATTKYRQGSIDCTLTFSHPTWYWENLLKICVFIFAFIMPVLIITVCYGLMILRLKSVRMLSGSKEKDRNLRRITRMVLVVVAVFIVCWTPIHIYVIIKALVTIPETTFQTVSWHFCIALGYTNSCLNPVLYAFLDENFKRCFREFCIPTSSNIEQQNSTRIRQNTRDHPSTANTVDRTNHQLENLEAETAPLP
UniProt P41144: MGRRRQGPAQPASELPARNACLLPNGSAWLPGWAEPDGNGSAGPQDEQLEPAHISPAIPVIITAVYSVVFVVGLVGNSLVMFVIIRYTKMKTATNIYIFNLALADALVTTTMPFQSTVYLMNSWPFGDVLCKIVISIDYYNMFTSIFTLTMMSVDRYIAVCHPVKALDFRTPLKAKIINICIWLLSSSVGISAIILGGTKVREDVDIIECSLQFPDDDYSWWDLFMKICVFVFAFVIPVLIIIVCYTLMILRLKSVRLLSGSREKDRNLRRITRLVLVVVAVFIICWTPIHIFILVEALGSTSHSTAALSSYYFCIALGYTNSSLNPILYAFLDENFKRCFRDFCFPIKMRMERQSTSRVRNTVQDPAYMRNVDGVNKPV
UniProt P41145: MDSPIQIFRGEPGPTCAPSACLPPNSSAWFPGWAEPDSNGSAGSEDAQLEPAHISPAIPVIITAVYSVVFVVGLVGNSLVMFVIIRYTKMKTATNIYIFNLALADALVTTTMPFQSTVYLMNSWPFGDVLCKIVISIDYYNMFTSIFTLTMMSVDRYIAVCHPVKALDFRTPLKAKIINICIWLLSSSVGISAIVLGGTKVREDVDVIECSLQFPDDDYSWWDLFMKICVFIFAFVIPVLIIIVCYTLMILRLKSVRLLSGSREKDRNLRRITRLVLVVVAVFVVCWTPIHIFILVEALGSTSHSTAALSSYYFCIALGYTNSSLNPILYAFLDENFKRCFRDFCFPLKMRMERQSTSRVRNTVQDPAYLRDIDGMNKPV

According to US8309725B2 (priority 2007, dated 2012):

Experiments:
[1] = in vivo model (analgesic activity, not further specified)
human μ opioid receptor = human μ opioid receptor (Homo sapiens, UniProt P35372); experiment: binding to human μ opiate receptor membranes (CHO-K1 cells, [3H]-naloxone, SPA); settings: read-out: affinity for the μ receptor (Ki), human μ opioid receptor membranes from CHO-K1 cells
κ receptor = κ receptor (Cavia porcellus, UniProt P41144); settings: read-out: affinity for the κ receptor (Ki ± SEM); guinea pig brain preparation, [3H]-U69.593, text of Example 30
male NMRI mice [2] = experiment: visceral inflammation pain model (colitis induced by mustard oil); assay type: in vivo, mouse; settings: for peripheral analgesic action (conclusion of the visceral pain model): i.v.
human κ opioid receptor = human κ opioid receptor (Homo sapiens, UniProt P41145); experiment: binding to human κ opiate receptor membranes (HEK-293 cells, [3H]-CI-977, SPA); settings: read-out: affinity for the κ receptor (Ki), human κ opioid receptor membranes from HEK-293 cells
male NMRI mice [3] = experiment: phenylquinone-induced writhing test on the mouse; settings: for analgesic action (conclusion of the writhing test): i.v.
[4] = 10 mg/kg intravenously in PEG 200, phenylquinone i.p. after 10 minutes, mouse
[5] = 21.5 mg/kg i.v., 2 to 12 minutes after rectal mustard oil, mouse

Compound	analgesic activity in an in vivo model [1]	analgesic action compared with the compound of the formula (4) [1]	Ki (human μ opioid receptor) [nM]	Ki (κ receptor) [nM]	analgesic effect in the spontaneous pain study (male NMRI mice [2]; 1.0 mg/kg, 3.16 mg/kg and 10 mg/kg i.v., mouse)	analgesic effect in the spontaneous pain study (male NMRI mice [2]; 10 mg/kg i.v., mouse)	peripheral analgesic action (conclusion of the visceral pain model) (male NMRI mice [2]; mouse)	Ki (human κ opioid receptor) [nM]	percentage inhibition of the writhing reactions (male NMRI mice [3]; 3.16 mg/kg intravenously in PEG 200, mouse) [%]	percentage inhibition of the writhing reactions (male NMRI mice [3]; [4])	percentage inhibition of the writhing reactions (male NMRI mice [3]; 21.5 mg/kg intravenously in PEG 200, mouse) [%]	analgesic action (conclusion of the writhing test) (male NMRI mice [3]; mouse)	action in the spontaneous pain study (male NMRI mice [2]; [5])	spontaneous visceral pain score (male NMRI mice [2]; [5])	action in the models of the centrally mediated types of pain, allodynia and hyperalgesia (male NMRI mice [2]; 21.5 mg/kg i.v., von Frey filaments 1 mN and 16 mN, 20 to 40 minutes after mustard oil)	side effects (male NMRI mice [3]; 10 mg/kg intravenously, mouse)
O=C(Cc1ccc(Cl)c(Cl)c1)N1CCNC2CCCC(N3CCC(O)C3)C21 (centres unmarked)	analgesic activity															
O=C(Cc1ccc(Cl)c(Cl)c1)N1CCNC2CCCC(N3CCCC3)C21 (centres unmarked)	analgesic activity	even better analgesic action														
2-(3,4-dichlorophenyl)-1-{(4aRS,8SR,8aSR)-8-[(3SR)-3-hydroxypyrrolidin-1-yl]perhydroquinoxalin-1-yl}ethan-1-one and 2-(3,4-dichlorophenyl)-1-{(4aRS,8SR,8aSR)-8-[(3RS)-3-hydroxypyrrolidin-1-yl]perhydroquinoxalin-1-yl}ethan-1-one			4900	8.7	showed an analgesic effect in the spontaneous pain study with the forms of administration with increasing dose	absence of pain was nearly achieved	good peripheral analgesic action	19	5	40%	97	analgesic action				
O=C(Cc1ccc(Cl)c(Cl)c1)N1CCN[C@@H]2CCC[C@H](N3CCCC3)[C@@H]21 (racemic)			2800	2.1			good peripheral analgesic action	28		about 9%		analgesic action	very good action	corresponded to that of the control group	no action	No noticeable side effects
